Data taken from patent US20230310452A1, “BROMODOMAIN AND EXTRA TERMINAL DOMAIN (BET) INHIBITOR COMPOSITIONS AND METHODS THEREOF FOR USE AS ANTI-AGING AGENTS” (MDI Biological Laboratory, priority 2020, published 2023).

Tested on: CGI- gene expression
Assay: CGI- gene expression upon treatment with BET inhibitors other than JQ1 in cell lines/tissues (FIG. 14)
Assay type: cell-based
Details: indicated cell lines/tissues, concentrations, durations, vs untreated controls
Excerpt: Moreover, the cell line or tissue used in the BET inhibitor treatment, as well as treatment duration and concentration were also provided.

With CCNC(=O)C[C@@H]1N=C(c2ccc(Cl)cc2)c2cc(OC)ccc2-n2c(C)nnc21 [I-BET 762, (S)-2-(6-(4-chlorophenyl)-8-methoxy-1-methyl-4H-benzo[f][1,2,4]triazolo [4,3-a][1,4]diazepin-4-yl)-N-ethylacetamide] the “CGI- gene expression upon BET inhibitors other than JQ1” value was “suppress Cytosine-phosphate-Guanine (CpG) island negative genes”.
